Laboratory results as given in US20230212272A1 (LONGBIO PHARMA SUZHOU, published 2023).

Tests used:
[1] = target: T1, C5 of normal human serum (NHS) (human, UniProt P01031 19-1676); assay: cell-based or functional assay
[2] = target: T1, C5 of normal human serum (NHS); assay: cell-based or functional assay; remark: listed apart in the source

B1: Ravulizumab (antibody, human IgG2, kappa, V domains shown)
VH: QVQLVQSGAEVKKPGASVKVSCKASGHIFSNYWIQWVRQAPGQGLEWMGEILPGSGHTEYTENFKDRVTMTRDTSTSTVYMELSSLRSEDTAVYYCARYFFGSSPNWYFDVWGQGTLVTVSS
VL: DIQMTQSPSSLSASVGDRVTITCGASENIYGALNWYQQKPGKAPKLLIYGATNLADGVPSRFSGSGSGTDFTLTISSLQPEDFATYYCQNVLNTPLTFGQGTKVEIKR
[1]
  IC50 (ng/ml), inhibition of classical pathway hemolysis of sheep red blood cells by 1% NHS: 1190 ng/mL
[2]
  IC50 (ng/ml), classical pathway (CP) hemolysis inhibition: 2680 ng/mL
  IC90 (ng/ml), classical pathway (CP) hemolysis inhibition: 9060 ng/mL
